Laboratory results from patent US11548792B2, “Water-soluble gold (III) complexes, methods of producing water-soluble gold (III) complexes and their use” (dated 2023).

Columns and labels:
[1] = system: B16-F10 murine melanoma cell line; test: XTT viability assay, B16-F10 murine melanoma cell line; conditions: same range of concentration for complex and cisplatin, FIG. 3
[2] = system: melanoma (MeWO [ATCC HTB-65]); test: XTT viability assay, MeWo human melanoma cell line; conditions: same range of concentration for complex and cisplatin, FIG. 2
[3] = system: CFPAC-1 pancreatic cancer line; test: Viability test, CFPAC-1 pancreatic cancer line; conditions: 24-hour incubation, FIG. 4

diamminedichloroplatinum II
biological activity towards the cells in the studied concentration range [1]: weak inhibitory effect | biological activity towards the cells in the studied concentration range [2]: only a weak inhibitory effect | viability in the entire concentration range [3]: resistance
